The assay concerns the target HDAC6 (Homo sapiens, UniProt Q9UBN7). As to the kind of experiment: biochemical.

Protein sequences, listed by entry. Tags and fused reporters are not part of them. Lines headed by an entry give the natural chain unless they say otherwise; changes in a name come on top.
UniProt Q9UBN7: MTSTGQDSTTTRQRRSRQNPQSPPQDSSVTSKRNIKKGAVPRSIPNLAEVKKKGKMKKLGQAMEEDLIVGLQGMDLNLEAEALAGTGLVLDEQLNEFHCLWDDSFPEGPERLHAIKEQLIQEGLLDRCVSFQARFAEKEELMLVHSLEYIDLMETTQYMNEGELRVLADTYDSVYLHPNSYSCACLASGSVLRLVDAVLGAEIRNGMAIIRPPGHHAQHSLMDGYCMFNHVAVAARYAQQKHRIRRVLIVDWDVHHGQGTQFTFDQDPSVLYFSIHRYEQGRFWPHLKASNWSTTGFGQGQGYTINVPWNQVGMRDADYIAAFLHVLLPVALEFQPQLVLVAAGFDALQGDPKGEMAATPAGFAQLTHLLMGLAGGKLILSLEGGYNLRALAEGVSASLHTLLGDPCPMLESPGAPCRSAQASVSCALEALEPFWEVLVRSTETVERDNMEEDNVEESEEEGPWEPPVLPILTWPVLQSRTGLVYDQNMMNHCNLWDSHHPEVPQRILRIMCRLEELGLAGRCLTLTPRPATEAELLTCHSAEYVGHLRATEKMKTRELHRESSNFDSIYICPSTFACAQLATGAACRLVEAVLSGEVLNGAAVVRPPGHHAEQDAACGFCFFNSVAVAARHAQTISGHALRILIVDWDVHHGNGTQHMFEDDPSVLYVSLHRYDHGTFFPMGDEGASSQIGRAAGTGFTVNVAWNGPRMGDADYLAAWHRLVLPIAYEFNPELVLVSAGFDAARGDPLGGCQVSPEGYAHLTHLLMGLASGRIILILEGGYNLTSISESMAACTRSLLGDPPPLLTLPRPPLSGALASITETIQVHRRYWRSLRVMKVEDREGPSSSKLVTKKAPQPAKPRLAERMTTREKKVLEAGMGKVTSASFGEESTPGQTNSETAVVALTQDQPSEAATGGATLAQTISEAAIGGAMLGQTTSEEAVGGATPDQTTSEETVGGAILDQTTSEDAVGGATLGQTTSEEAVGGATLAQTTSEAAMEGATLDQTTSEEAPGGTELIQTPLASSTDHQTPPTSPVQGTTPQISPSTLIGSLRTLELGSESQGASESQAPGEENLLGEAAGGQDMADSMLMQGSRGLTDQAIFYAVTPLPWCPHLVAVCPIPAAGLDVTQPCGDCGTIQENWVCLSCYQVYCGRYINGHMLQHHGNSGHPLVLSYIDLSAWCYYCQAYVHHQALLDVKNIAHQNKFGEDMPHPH

pIC50: −log10 of the molar value. Bounds are passed on as bounds.

One may read the pIC50 as the IC50 on a negative log10 scale, so that one unit is a factor of ten. The low end stands for a high IC50, the high end for a low IC50. As to `CC(=O)Nc1ccc(C(=O)Nc2cc(-c3cccs3)ccc2N)cc1` [Cpd-60], the negative logarithm of the IC50 (pIC50) was < 4.52.

The values above are taken from paper PMC3743770, “A Selective HDAC 1/2 Inhibitor Modulates Chromatin and Gene Expression in Brain and Alters Mouse Behavior in Two Mood-Related Tests” (PLoS ONE, 2013).
